GIV-Gai inh – inhibitors of GIV peptide binding to Galpha-i3, primary screen, biochemical, fluorescence polarization, FITC-GIV GBA peptide, rat Galphai3. Guanine nucleotide-binding protein G(i) subunit alpha-3 (Rattus norvegicus), P08753. 90 min; stronger effect = lower value; scaled: aluminum fluoride 0%, vehicle 100%. percent of control (FP), % (test concentration not listed). hit rate 0.42% among 210,000. AID 1224905, 2016;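 active = replicate mean at 85% of control or lower, very high polarization wells dropped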;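 note: wells of about 15 µL received 100 nL stock; the first replicate is given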
HCMV UL50-53 inh – inhibitors of HCMV UL50-UL53 interaction, biochemical, HTRF; inhibition, % (no concentration beside the values); normalized percent inhibition; HCMV UL50-UL53 nuclear egress complex (human cytomegalovirus); actives 0.15% (n = 190,000); in the data active means inhibition above about 27%, passing the limit was not always enough
GIV Gai FP conf – inhibitors of GIV peptide binding to Galpha-i3, confirmation, biochemical, fluorescence polarization, FITC-GIV peptide, rat Galphai3; fluorescence polarization, mP at 100 µM; actives 38% (n = 580); shares compounds with GIV-Gai inh; AID 1259350, 2017; hits give low values;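 active means inhibition score of 15 or more, meaning 100 minus mean polarization as percent of control over three replicates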;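 further: lower mP means peptide displaced from Galphai3 so more inhibition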
GIV Gai AS conf – inhibitors of GIV binding to Galpha-i3, confirmation, orthogonal assay for GIV-Galpha-i inhibitor project, biochemical, AlphaScreen, His-GIV, GST-Galphai3 | AID 1259351, 2017 | AlphaScreen counts at 100 µM | shares compounds with GIV-Gai inh | actives 39% (n = 580) | purified proteins, 90 min; hits give low values;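 active means inhibition score at or above a set limit, where the score is 100 minus the three-replicate mean percent of control signal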
Active calls of the source: *; . = no result. Sampled rows, rich in hits. Any-hit rate of the full collection: about 0.46%.

By UniProt entry, the sequences of proteins in these tests, tags left out.
Guanine nucleotide-binding protein G(i) subunit alpha-3 (Rattus norvegicus), P08753, UniProt P08753, whole entry, looked up: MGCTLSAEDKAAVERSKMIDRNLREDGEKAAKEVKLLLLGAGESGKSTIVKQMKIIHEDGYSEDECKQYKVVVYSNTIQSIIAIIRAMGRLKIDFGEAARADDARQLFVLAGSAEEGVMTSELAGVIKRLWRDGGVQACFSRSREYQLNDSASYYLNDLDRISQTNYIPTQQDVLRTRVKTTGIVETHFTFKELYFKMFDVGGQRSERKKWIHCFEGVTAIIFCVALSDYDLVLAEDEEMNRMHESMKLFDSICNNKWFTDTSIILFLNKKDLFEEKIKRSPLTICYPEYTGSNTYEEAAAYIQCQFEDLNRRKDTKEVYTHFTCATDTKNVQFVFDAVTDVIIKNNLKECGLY

Second line of a record: GIV-Gai inh, HCMV UL50-53 inh, GIV Gai FP conf, GIV Gai AS conf
COc1ccccc1-c1nc2c3ccccc3ncn2n1
  113, -16, ., .
COc1cccc(-c2nc3c4ccccc4ncn3n2)c1
  78*, -9, 66, 41785
N#CC(C#N)=C(N)CSc1ccc(Cl)cc1
  ., -5, ., .
O=C1NC(=S)NC(=O)C1=Cc1ccccc1OCCOc1ccc([N+](=O)[O-])cc1
  97, -62, ., .
CC(=O)N/N=C/c1ccccc1
  101, -14, ., .
CC(=O)N/N=C/c1cc(C(C)C)cc(/C=N/NC(C)=O)c1O
  81*, -85, 68, 27039
CCn1c(C)c(CN2CCC(C(=O)N3CCCC3)CC2)c2ccccc21
  102, ., ., .
CCn1c2c(c3ccccc31)CN(C(=O)C1CCC1)CC2
  51*, ., 20*, 14471*
CCOc1ccc(N(Cc2nc3nc(C)cc(=O)n3[nH]2)C(=O)COc2ccccc2)cc1
  104, -18, ., .
c1ccc(CNCC2CC2)cc1
  102, 0, ., .
COc1ccc(N2C(=O)c3c(C)nc4ccccc4c3C2=O)cn1
  84*, -38, 55, 42415
COc1ccc(N2C(=O)c3c(C)nc4ccccc4c3C2=O)cc1OC
  103, -29, ., .
Cc1sc(-c2noc(C3CCC3)n2)cc1S(=O)(=O)N1CCCC(C(=O)NC2CCCC2)C1 (stereo not given)
  106, -15, ., .
COc1ccc2c(c1)c(/C=C/c1nc3ccccc3c(=O)n1-c1cccc(C)c1)c(C)n2C
  66*, -10, 72, 43303
COc1ccc2c(c1)c(/C=C/c1nc3ccccc3c(=O)n1-c1ccccc1)c(C)n2C
  107, -3, ., .
CCOc1ccc(C(=O)Nc2ccc(-c3nc4ccccc4o3)cc2)cc1Br
  69*, 7, 79, 44420
CCOc1ccc(C(=O)Nc2ccc3oc(-c4ccncc4)nc3c2)cc1Br
  108, ., ., .
O=S(=O)(NCC1CCCO1)c1ccc(-n2cccn2)cc1 (stereo not given)
  106, ., ., .
Cc1ccc(C2C=C(c3ccccc3)Nc3nc(NS(=O)(=O)c4ccc(C)cc4)nn32)cc1 (stereo not given)
  100, ., ., .
CS(=O)(=O)Nc1nc2n(n1)C(c1ccccc1)C=C(c1ccccc1)N2 (stereo not given)
  53*, ., 44*, 28094

Exported in CSV form: 2 of the compounds above.
SMILES,GIV-Gai inh,HCMV UL50-53 inh,GIV Gai FP conf,GIV Gai AS conf
COc1ccc(N2C(=O)c3c(C)nc4ccccc4c3C2=O)cc1OC,103,-29,.,.
Cc1sc(-c2noc(C3CCC3)n2)cc1S(=O)(=O)N1CCCC(C(=O)NC2CCCC2)C1 (stereo not given),106,-15,.,.

The listing continues:
Second line of a record: GIV-Gai inh, HCMV UL50-53 inh, GIV Gai FP conf, GIV Gai AS conf
CSc1ccc(-c2noc(CSc3ccc(-c4ccc(Br)cc4)nn3)n2)cc1
  104, -11, ., .
O=c1cc(CNc2ccc(Br)cc2)nc2nc(-c3ccc(F)cc3)[nH]n12
  111, -11, ., .
COc1ccc(OC)c(C2C(C(=O)Nc3nc4ccc(Br)cc4s3)=C(C)NC3=C2C(=O)CC(C)(C)C3)c1 (stereo not given)
  88, -8, 63, 54834
COc1ccc(OC)c(C2C(C(=O)Nc3nc4ccccc4s3)=C(C)NC3=C2C(=O)CC(C)(C)C3)c1 (stereo not given)
  105, -2, ., .
CCOCCn1ccc2c(OCC(=O)Nc3ccc4c(c3)OCCO4)cccc2c1=O
  108, -42, ., .
C=CCn1nc(C(=O)N2CCOCC2)c2c1CCC(NCc1ccc(Cl)s1)C2 (stereo not given)
  ., 0, ., .
O=C(O)c1cc2c3c(c1)C1C=CCC1C(c1ccc(F)cc1)N3CC1CC=CC21 (stereo not given)
  99, 5, ., .
O=C(O)c1cc2c3c(c1)C1C=CCC1C(c1ccccc1F)N3CC1CC=CC21 (stereo not given)
  74*, -19, 21*, 3685*
O=C(O)c1cc2c3c(c1)C1C=CCC1C(c1cccc([N+](=O)[O-])c1)N3CC1CC=CC21 (stereo not given)
  101, -7, ., .
O=C(O)c1cc2c3c(c1)C1C=CCC1C(c1ccccc1)N3CC1CC=CC21 (stereo not given)
  81*, 9, 47*, 7304*
COC(=O)C1(OC)C(C(=O)c2ccc(C)cc2)=C(OC(c2ccccc2)c2ccccc2)C(=O)N1c1ccccc1 (stereo not given)
  105, ., ., .
Cc1ccc2c(=O)c(C(=O)c3ccc(Cl)cc3)cn(CC(=O)NCC3CCCO3)c2n1 (stereo not given)
  110, -4, ., .
CCOc1ccccc1CNC(=O)c1cc2cc(S(=O)(=O)N3CCCCC3)ccc2n1C
  98, ., ., .
Cn1c(C(=O)NCc2ccccc2F)cc2cc(S(=O)(=O)N3CCCCC3)ccc21
  89, ., 79, 33586
CCN(Cc1ccccc1)C(=O)c1cc2c(=O)[nH]c3ccc(C)cc3c2s1
  103, -13, ., .
CN(Cc1ccccc1)C(=O)c1cc2c(=O)[nH]c3ccccc3c2s1
  87, 0, 68, 48153
O=[N+]([O-])c1cc(C(F)(F)F)ccc1N1CCN(S(=O)(=O)c2cccc3nonc23)CC1
  111, ., ., .
O=C1C(Sc2ncn[nH]2)=C/C(=N/S(=O)(=O)c2ccc(F)cc2)c2ccccc21
  3.7*, 2, 36*, 5053*
CCOc1ccc(CSc2ncn[nH]2)cc1
  99, -4, ., .
O=C(O)C(Sc1ncn[nH]1)c1ccccc1 (stereo not given)
  ., -18, ., .
O=S(=O)(Nc1cc(Sc2ncn[nH]2)c(O)c2ccccc12)c1cccs1
  105, -1, ., .
CCOc1ccc(S(=O)(=O)/N=C2/C=C(Sc3ncn[nH]3)C(=O)c3ccccc32)cc1
  11*, 21, 32*, 6312*
O=C1C(Sc2ncn[nH]2)=C/C(=N/S(=O)(=O)c2cccs2)c2ccccc21
  18*, 51*, 40*, 4995*
CCc1nc2ccccc2n1C(=O)c1cc2c(C)nn(-c3ccc(Cl)cc3)c2s1
  ., 16, ., .
CCCC(CCC)C(=O)N1CCC(n2cc(C3CC3)nn2)CC1
  ., -15, ., .
Cn1c(=O)c(=O)n(C)c2cc(S(=O)(=O)N3CCN(c4ccccn4)CC3)ccc21
  106, -33, ., .
O=C(O)c1cccc(S(=O)(=O)/N=C2/C=C(NS(=O)(=O)c3ccccc3)C(=O)c3ccccc32)c1
  63*, ., 62, 12814*
O=C1C(NS(=O)(=O)c2ccccc2)=C/C(=N\S(=O)(=O)c2ccc(F)cc2)c2ccccc21
  92, ., ., .
CCOC(=O)N1CCN(Cn2nnc3ccccc3c2=O)CC1
  ., -45, ., .
O=C(Cn1cc(/C=c2/sc3nc4ccccc4n3c2=O)c2ccccc21)N1CCCC1
  80*, -27, 78, 43306

Structures above that contain a nitro group on carbon:
Second line of a record: GIV-Gai inh, HCMV UL50-53 inh, GIV Gai FP conf, GIV Gai AS conf
O=C1NC(=S)NC(=O)C1=Cc1ccccc1OCCOc1ccc([N+](=O)[O-])cc1
  97, -62, ., .
O=C(O)c1cc2c3c(c1)C1C=CCC1C(c1cccc([N+](=O)[O-])c1)N3CC1CC=CC21 (stereo not given)
  101, -7, ., .
O=[N+]([O-])c1cc(C(F)(F)F)ccc1N1CCN(S(=O)(=O)c2cccc3nonc23)CC1
  111, ., ., .

Additional structures.
Second line of a record: GIV-Gai inh, HCMV UL50-53 inh, GIV Gai FP conf, GIV Gai AS conf
O=C(Cn1cc(/C=c2/sc3nc4ccccc4n3c2=O)c2ccccc21)Nc1ccccc1
  108, ., ., .
COc1ccc(/C=c2/sc3nc4ccccc4n3c2=O)cc1
  ., 9, ., .
COc1ccc(OC)c(/C=c2\sc3nc4ccccc4n3c2=O)c1
  89, -7, 52*, 38058
O=C1c2ccccc2C(=O)N1CCc1nnn(Cc2ccc(Cl)cc2)n1
  ., -18, ., .
Cc1nn(-c2nc3ccc(Br)cc3s2)c2c1C(c1c(F)cccc1F)CC(=O)N2 (stereo not given)
  102, ., ., .

Assay outcomes deposited in PubChem by ICCB-Longwood Screening Facility, Harvard Medical School.
